How the values were obtained:
Dihydrofolate reductase = biological target: T1, Dihydrofolate reductase (Pneumocystis carinii, UniProt P16184)
T1 sequence (P16184 whole entry): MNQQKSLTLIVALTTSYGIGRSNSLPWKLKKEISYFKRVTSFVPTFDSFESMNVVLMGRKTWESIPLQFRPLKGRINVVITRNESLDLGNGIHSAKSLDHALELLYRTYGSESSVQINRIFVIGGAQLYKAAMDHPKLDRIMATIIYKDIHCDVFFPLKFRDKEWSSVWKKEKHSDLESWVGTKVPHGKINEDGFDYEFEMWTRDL

[1] = biological target: T2, Bifunctional dihydrofolate reductase-thymidylate synthase (Toxoplasma gondii, UniProt Q07422)
T2 sequence (Q07422 whole entry): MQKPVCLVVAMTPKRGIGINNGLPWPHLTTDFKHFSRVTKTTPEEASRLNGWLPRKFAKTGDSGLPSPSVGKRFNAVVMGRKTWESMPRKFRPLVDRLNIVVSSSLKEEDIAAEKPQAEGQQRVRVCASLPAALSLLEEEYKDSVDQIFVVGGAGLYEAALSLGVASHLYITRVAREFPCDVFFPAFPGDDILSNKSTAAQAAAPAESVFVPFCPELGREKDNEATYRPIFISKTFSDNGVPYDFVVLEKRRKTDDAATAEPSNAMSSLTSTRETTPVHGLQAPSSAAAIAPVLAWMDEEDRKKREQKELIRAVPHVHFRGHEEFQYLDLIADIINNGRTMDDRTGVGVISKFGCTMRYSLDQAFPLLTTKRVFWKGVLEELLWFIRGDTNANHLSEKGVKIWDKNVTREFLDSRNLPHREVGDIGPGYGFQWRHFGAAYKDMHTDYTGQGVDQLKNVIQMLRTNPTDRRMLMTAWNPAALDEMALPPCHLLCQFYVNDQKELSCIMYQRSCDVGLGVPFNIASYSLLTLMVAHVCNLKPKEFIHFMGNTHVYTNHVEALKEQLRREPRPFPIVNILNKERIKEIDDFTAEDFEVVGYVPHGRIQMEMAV

| Compound | IC50 (Dihydrofolate reductase) [nM] | IC50 [1] [nM] |
| --- | --- | --- |
| CCc1nc(N)nc(N)c1-c1ccc(Cl)c(/N=N/N2CCOCC2)c1 | 4700 | – |
| CCc1nc(N)nc(N)c1-c1ccc(Cl)c(/N=N/N(CCOC(C)=O)Cc2ccccc2)c1 | – | 690 |

Source: ChEMBL document CHEMBL1130062 (J Med Chem, 1997)
